Test results reported in patent publication US5444151A, “Platelet derived growth factor antagonists” (Ludwig Institute for Cancer Research, priority 1992, dated 1995).

Biological target: PDGF-β receptor (Homo sapiens, UniProt P09619)
Experiment: β-receptor autophosphorylation and dimerization in PAE cells
Type: cell-based
Set-up: expressed in transfected cells; host or cells: PAE cells
Conditions: conditioned media, 90 minutes at 4° C., BS3 crosslinking
Protocol: It was important to determine whether the binding of monomeric PDGF to PDGF receptors induced agonistic or antagonistic effects. The PDGF-mono B molecule was therefore tested for its ability to activate β-receptor in an autophosphorylation assay. Conditioned media from cultures of COS cells transfected with pSV B stop, pSV monoB or from mock transfected cells were desalted and concentrated as described supra. A radio receptor assay was carried out to determine receptor binding activity, using standard techniques. Once this was accomplished, media from pSV monoB or pSV monoB stop transfected cells were adjusted with mock transfected medium to receptor binding activity of 100 ng/ml. PAE cells expressing PDGF B receptors (Westermark et al., Proc Natl. Acad. Sci. USA 87: 128-132 (1990)), grown in 25 cm^2 dishes were labeled in serum and methionine free MCDB 104 medium supplemented with 0.1 mg/ml BSA and 0.1 ml [^35 S] methionine/ml for three hours at 37° C. Cells were stimulated with 1 ml of different concentrations of conditioned media for 30 minutes at 4° C. A positive control was set up using 1 ml of mock transfected medium with 100 ng/ml of recombinant PDGF-BB. […] Immunocomplexes were analyzed by SDS-gel electrophoresis, using a 7% acrylamide gel and fluorography. […]

Dimerization of the β receptor (in words): caused dimerization
Substance: PDGF-BB: platelet derived growth factor B chain homodimer
